{"source": "paper PMC9907720", "about": "(Antiviral research, 2022)", "system": "AD169 virus", "assay": "Time-of-addition assay", "settings": "10 μM added at −60, 0, 15, 30, 60, 90 mpi; NHDF; anti-IE1 at 24 hours"}
{"smiles": "Cc1nc(Nc2ccc(NC(=O)c3ccco3)cc2)cc(N2CCCC2)n1", "note": "[MBX-4992]", "values": [{"measurement": "time of addition at which infection is prevented", "value": "most effective at preventing infection when introduced between −60 min prior to infection to 30 mpi"}]}
